Measurements: patent US12180193B2, “Accelerating fibrosarcoma protein degrading compounds and associated methods of use” (Arvinas Operations, Inc., priority 2020, dated 2024)

Protein sequences, listed by entry. Tags and fused reporters are not part of them.
UniProt P15056, whole entry G466V: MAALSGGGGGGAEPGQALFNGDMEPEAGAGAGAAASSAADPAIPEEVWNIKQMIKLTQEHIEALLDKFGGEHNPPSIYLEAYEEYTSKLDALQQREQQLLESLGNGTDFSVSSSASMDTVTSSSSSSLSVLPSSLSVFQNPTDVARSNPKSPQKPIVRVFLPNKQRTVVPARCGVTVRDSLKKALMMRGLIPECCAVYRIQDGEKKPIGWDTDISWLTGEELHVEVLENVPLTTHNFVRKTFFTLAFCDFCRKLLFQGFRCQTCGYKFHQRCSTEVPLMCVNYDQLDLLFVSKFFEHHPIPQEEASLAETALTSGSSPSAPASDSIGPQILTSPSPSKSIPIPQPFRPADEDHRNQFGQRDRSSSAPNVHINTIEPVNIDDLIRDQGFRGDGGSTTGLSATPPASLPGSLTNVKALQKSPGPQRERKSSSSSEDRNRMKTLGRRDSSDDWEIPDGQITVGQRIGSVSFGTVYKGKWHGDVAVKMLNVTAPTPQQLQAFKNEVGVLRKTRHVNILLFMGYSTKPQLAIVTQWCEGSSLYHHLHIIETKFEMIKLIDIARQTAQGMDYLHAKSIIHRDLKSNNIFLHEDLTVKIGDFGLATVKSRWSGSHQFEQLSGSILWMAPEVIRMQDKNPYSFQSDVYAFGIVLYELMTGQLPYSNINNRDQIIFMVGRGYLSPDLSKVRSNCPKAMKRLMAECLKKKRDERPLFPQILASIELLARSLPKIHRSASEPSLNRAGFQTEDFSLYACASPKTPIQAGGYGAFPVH
UniProt P15056, whole entry V600E: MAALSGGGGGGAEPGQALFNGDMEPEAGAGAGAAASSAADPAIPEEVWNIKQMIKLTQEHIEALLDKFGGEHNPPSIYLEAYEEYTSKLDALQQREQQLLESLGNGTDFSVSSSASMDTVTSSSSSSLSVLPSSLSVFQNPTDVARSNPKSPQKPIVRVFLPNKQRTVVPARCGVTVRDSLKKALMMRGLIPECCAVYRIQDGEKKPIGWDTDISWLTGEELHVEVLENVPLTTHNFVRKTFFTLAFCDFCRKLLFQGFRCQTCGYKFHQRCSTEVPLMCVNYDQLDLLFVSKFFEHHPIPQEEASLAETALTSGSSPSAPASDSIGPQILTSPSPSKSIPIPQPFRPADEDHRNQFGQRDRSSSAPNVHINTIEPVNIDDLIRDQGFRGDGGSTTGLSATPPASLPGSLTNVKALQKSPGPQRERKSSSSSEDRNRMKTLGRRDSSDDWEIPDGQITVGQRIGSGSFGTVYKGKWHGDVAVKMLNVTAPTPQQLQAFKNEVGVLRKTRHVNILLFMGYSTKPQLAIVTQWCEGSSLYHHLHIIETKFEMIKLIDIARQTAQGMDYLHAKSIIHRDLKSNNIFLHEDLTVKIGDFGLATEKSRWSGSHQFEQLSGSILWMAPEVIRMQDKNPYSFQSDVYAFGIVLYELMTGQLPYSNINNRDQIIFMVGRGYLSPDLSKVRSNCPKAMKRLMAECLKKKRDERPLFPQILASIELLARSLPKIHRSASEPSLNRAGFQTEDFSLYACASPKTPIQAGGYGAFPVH

Legend:
BRAF V600E = BRAF V600E (Homo sapiens, UniProt P15056, V600E); assay: Cellular assay of target protein degradation, T-Rex 293 cells stably transfected with HA-BRAF_V600E (HA immunofluorescence, high content imaging); conditions: T-Rex 293 HA-BRAF V600E
Description: (§1) Protocol for a cellular assay of target protein degradation (T-Rex 293 cells). T-Rex 293 cells were purchased from Invitrogen (#R71007), and stably transfected with a pcDNA4/TO_HA-BRAF_V600E construct, using 400 ug Zeocin for selection. V600e cells are plated in Dulbecco's Modified Eagle Medium (DMEM; Gibco #11965118) containing 10% fetal bovine serum (FBS; Gibco #16000044) and 1 ng/mL doxycycline (Selleckchem #4163) at a density of 5,000 cells/well in 50 μl on poly-D-lysine (PDL) coated, black clear bottom 96-well plates (Corning #354640) and incubated for 24 hours at 37° C. with 5% C02. The following day 50 ul of tested compound was added at 2x concentration in DMEM with a final concentration ranging from 1 μM to 0.1 nM in 0.1% dimethylsulfoxide (DMSO), and incubated for 24 hours at 37° C. with 5% CO2. At the end of the experimental treatment, the media was flicked off and cells washed once with phosphate-buffered saline (PBS)++ (PBS with CaCl and MgCl) and gently replacing with 200 μl PBS++ per well. […] Plate was wash three times with 200 uL PBS++, and imaged on a high content reader (ImageXpress Micro XLS, Molecular Devices).
(§2) The concentration of exemplary compound that leads to half maximal degradation (DC50) as well as the maximum degradation observed (Dmax, conventionally expressed as a percentage of control), which are below in Table 2 for the exemplary compounds of Table 1.

BRAF G466V = BRAF G466V (Homo sapiens, UniProt P15056, G466V); assay: Cellular assay of target protein degradation, T-Rex 293 cells stably transfected with HA-BRAF G466V (HA immunofluorescence, high content imaging); conditions: T-Rex 293 HA-BRAF G466V
Description: as §1, with “a pcDNA4/TO_HA-BRAF G466V” for “a pcDNA4/TO_HA-BRAF_V600E”, “selection. G466V” for “selection. V600e”, “and 0.75” for “and 1”, “5% CO2.” for “5% C02.”, “from 30 nM” for “from 1 μM”, “to 3 pM” for “to 0.1 nM”
as §2

Structure (SMILES): O=C1CCC(N2Cc3cc([C@@H](O)CN4CC5(C4)CN(c4ccc(-c6cnc7[nH]cc(C(=O)c8c(F)ccc(NS(=O)(=O)N9CC[C@@H](F)C9)c8F)c7c6)cc4)C5)ccc3C2=O)C(=O)N1 (stereo partly shown)
- BRaf V600E DMax (BRAF V600E; maximum degradation observed): A (A ≥ 70)
- DC50 (BRAF V600E; read-out: BRaf V600E DC50, half maximal degradation): 5 to 50 nM
- BRaf G466V DMax (BRAF G466V; maximum degradation observed): A (A ≥ 70)
- DC50 (BRAF G466V; read-out: BRaf G466V DC50, half maximal degradation): < 1 nM
